Assay results published in patent US8389512B2 (priority 2008, dated 2013).

Experiment: 4 hr in-vivo study: meloxicam plasma concentration after oral delivery to rats
Conditions: rat

Cc1cnc(NC(=O)C2=C(O)c3ccccc3S(=O)(=O)N2C)s1.O=C(O)CC(=O)O [Cocrystal 22, Meloxicam:Malonic Acid Cocrystal (1:1)]
meloxicam plasma concentration (time 240 min): 29.23 µg/mL

Cc1cnc(NC(=O)C2=C(O)c3ccccc3S(=O)(=O)N2C)s1.O=C(O)c1ccc2ccccc2c1O [Cocrystal 76, Meloxicam: 1-Hydroxy-2-Naphthoic Acid Cocrystal (1:1)]
meloxicam plasma concentration (time 15 min): 22.41 µg/mL

Cc1cnc(NC(=O)C2=C(O)c3ccccc3S(=O)(=O)N2C)s1.Cc1cnc(NC(=O)C2=C(O)c3ccccc3S(=O)(=O)N2C)s1.O=C(O)CCC(=O)O [Cocrystal 144, Meloxicam:Succinic Acid Cocrystal (2:1)]
meloxicam plasma concentration (time 30 min): 22.43 µg/mL
